Species on record: Homo sapiens
Experiment: Functional inhibition of the GPIIb-IIIa receptor was reflected as its ability to antagonize ADP induced platelet aggregation in human platelet-rich plasma
Type: organism-based

IC50: > 100 µM
Structure (SMILES): N=C(N)NCCC[C@H](N)C(=O)NCC(=O)N[C@@H](CC(=O)O)C(=O)N[C@@H](CO)C(=O)O
